Binding of CDR-mutated scFvs to a peptide of the spike HR2 region

Data: MIT Lincoln Laboratory AlphaSeq set, Li et al. 2023, doi:10.1038/s41467-023-39022-2, as distributed in FLAb.

Binding partner: SARS-CoV-2 spike HR2 peptide, sequence PDVDLGDISGINAS.

Ab-14 is the parent antibody, in scFv form: VH, then a 15-residue (Gly4Ser)3 linker, then VL. The heavy chain is unchanged in all variants.
VH: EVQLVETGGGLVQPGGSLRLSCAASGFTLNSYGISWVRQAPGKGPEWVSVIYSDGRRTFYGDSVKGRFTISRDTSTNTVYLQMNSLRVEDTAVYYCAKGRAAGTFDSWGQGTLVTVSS
VL: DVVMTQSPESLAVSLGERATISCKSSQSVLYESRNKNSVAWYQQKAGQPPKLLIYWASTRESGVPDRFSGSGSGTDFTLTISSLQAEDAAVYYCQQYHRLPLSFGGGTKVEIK

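These sequences belong to a second round, designed from the earlier measurements on random variants of the parent. Several design methods are mixed in this list. In AlphaSeq, yeast of one mating type display the scFv and yeast of the other type display the target. Binding brings cells together so that they mate, and sequencing counts the barcode pairs among the diploids. Scores were corrected for input abundance and mapped to Kd with protein pairs of known affinity run in the same pool. Each pool was mated in six replicate cultures.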

Substitutions are numbered in sequence along the VL above, starting at 1 (not Kabat). This list holds designs with at most six substitutions. The read-out is the apparent dissociation constant on a log10 scale (nM): the lower, the stronger. Where no diploid with the target was found in that replicate, the entry reads "nd": below detection, most likely a poor binder, though not proof of it.

Variant S25Q+S28E+V29K+W56D+T59Q gave 0.05, -0.32, -0.05, -0.34, -0.30, -0.20.
Variant S26E+S28Q gave nd, nd, nd, 1.30, nd, nd.
Variant Q27Y+V29C gave nd, nd, nd, 2.62, nd, 2.35.
Variant S25L+S26Q+V29T+W56D+E61L gave 0.10, -0.36, 0.10, -0.01, 0.01, -0.03.
Variant S25L+Q27P+L30M+N35M+W56M+E61Y gave 1.05, 0.64, 1.49, 0.61, 0.52, 1.80.
Variant S25E+V29G+W56G gave -0.05, 0.31, 0.35, 0.21, -0.20, -0.01.
Variant S25L+V29F+W56G gave -0.06, -0.10, -0.27, -0.31, -0.42, -0.01.
Variant S25V+S26Q+V29Y+W56N gave -0.06, -0.24, -0.11, -0.37, -0.11, -0.12.
Variant S26I+N35D+Q95F gave nd, nd, nd, nd, nd, nd.
Variant S28W gave nd, 2.12, 4.67, nd, nd, 3.50.
Variant S25L+S26D+V29Q+W56H gave 0.19, 0.09, 0.00, -0.03, -0.01, 0.20.
Variant S25L+K36C+S38N+W56N gave -0.01, -0.05, -0.26, -0.23, -0.22, -0.21.
Variant S25L+W56N+E61M+S62V gave -0.02, 0.38, -0.01, -0.19, -0.13, 0.44.
Variant S25L+S26E+V29E+W56N+S62D gave -0.19, -0.31, -0.40, -0.35, -0.57, -0.12.
Variant N35V+W56G+S62K+H98W gave nd, 2.03, 0.23, 1.27, 0.65, 2.54.
Variant S25L+S38N+W56A gave -0.59, -0.21, -0.68, -0.69, -0.62, -0.41.
Variant S25L+V29D+W56E+Q96S gave -0.05, -0.59, -0.73, -1.04, -0.78, -0.60.
Variant K36L+W56G+E61C gave 1.82, 0.95, 1.09, 1.04, 1.21, 1.43.
Variant S25M+E32Q+K36S+S38A+W56Q+T59Q gave 0.36, 0.14, 0.08, -0.02, -0.09, 0.23.
Variant S25I+V29E+W56N gave 0.11, -0.18, -0.06, -0.40, -0.06, -0.08.
Variant S25L+V29M+L30P+W56N+E61L gave -0.20, -0.17, -0.10, -0.02, -0.21, 0.34.
Variant S25C+W56N+T59Q gave -0.30, -0.66, -0.58, -0.70, -0.58, -0.36.
Variant R34F+E61S+P101H gave nd, nd, nd, nd, nd, nd.
Variant S25L+S26Q+L30W+W56N+E61L gave 0.14, 0.02, -0.12, -0.08, -0.16, 0.23.
Variant S25L+V29W+S33D+W56N+T59Q gave -0.07, -0.11, -0.18, 0.00, -0.23, 0.06.
Variant V29Q+S33G gave 1.57, 2.46, 1.41, nd, 1.39, 1.73.
Variant K24I+S25A+S26E+V29W+W56G+S103I gave 0.79, 0.46, 0.66, 0.45, 0.49, 0.69.
Variant K24Q+S25L+W56G gave -0.31, -0.51, -0.42, -0.74, -0.53, -0.41.
Variant S25L+S26Q+V29T gave 1.15, 0.71, 0.73, 0.80, 0.98, 0.90.
Variant S25I+S38N+W56D gave -0.48, -0.43, -0.52, -0.67, -0.37, -0.46.
Variant Y31S+E61Y gave nd, 2.60, nd, 4.22, nd, 2.30.
Variant S26V+W56G+S62Q gave 0.26, 0.16, 0.06, -0.05, -0.03, 0.14.
Variant S25L+S26Q+V29W+W56N gave 0.07, -0.06, 0.00, -0.26, -0.04, 0.02.
Variant N35E+E61I+S62E gave 1.77, nd, 2.08, 1.25, 1.54, 1.57.
Variant S26M+H98E gave nd, nd, 0.46, 1.82, nd, nd.
Variant Y31E+R34S+T59M gave 0.14, 0.44, 0.37, -0.15, 0.00, 0.91.
Variant S26Q+R34F gave 1.65, 0.69, nd, 1.27, nd, 1.29.
Variant Y31D+R34V+R99K gave 1.43, 1.23, 1.18, 1.58, 1.38, 1.19.
Variant S25F+L30G+W56G gave 0.45, 0.28, -0.08, 0.04, -0.04, 0.30.
Variant S25L+S26P+L30E+W56S gave -0.10, -0.26, -0.28, -0.31, -0.26, -0.16.
Variant S38N+W56Y gave 0.93, 0.59, 0.73, 0.65, 0.79, 0.58.
Variant L30P+K36P gave 2.18, 2.33, 1.75, 2.44, 1.82, 2.24.
Variant S25L+N35V+W56N gave 0.11, -0.07, -0.27, -0.17, -0.09, -0.01.
Variant S25L+L30P+N35Q+W56N gave -0.01, 0.06, -0.11, -0.28, -0.14, 0.20.
Variant S25L+S26E+Q27W+V29Q+W56N+T59Q gave 0.91, 0.48, 0.21, 0.73, 0.76, 0.33.
Variant S25Q+V29W+Y31C+W56D gave -0.13, -0.16, -0.38, -0.32, -0.36, -0.23.

8 of these entries, quoted again:

S25L+S26Q+V29W+W56N: 0.07, -0.06, 0.00, -0.26, -0.04, 0.02.
S26V+W56G+S62Q: 0.26, 0.16, 0.06, -0.05, -0.03, 0.14.
V29Q+S33G: 1.57, 2.46, 1.41, nd, 1.39, 1.73.
R34F+E61S+P101H: nd, nd, nd, nd, nd, nd.
L30P+K36P: 2.18, 2.33, 1.75, 2.44, 1.82, 2.24.
Y31S+E61Y: nd, 2.60, nd, 4.22, nd, 2.30.
S25L+S26E+Q27W+V29Q+W56N+T59Q: 0.91, 0.48, 0.21, 0.73, 0.76, 0.33.
Y31D+R34V+R99K: 1.43, 1.23, 1.18, 1.58, 1.38, 1.19.

The parent sequence was in this pool as ten entries: three were never detected, three once, and four in most replicates, with averages from 0.34 to 2.37. The range of this assay differs from that of the first round, and the authors advise against merging the two. Empty control strains, which show no peptide, gave a signal in 4% of pairings with all light chain designs; the median was 2.64 and 95% of these signals were weaker than 1.59. No background was subtracted. In the paper, a design with two or fewer of six values counts as a poor binder.